Laboratory results reported in article PMC8269367, “DNA G-Quadruplexes Contribute to CTCF Recruitment”.

Biological target: T1, CTCF (Mus musculus) (UniProt Q61164)
T1 sequence: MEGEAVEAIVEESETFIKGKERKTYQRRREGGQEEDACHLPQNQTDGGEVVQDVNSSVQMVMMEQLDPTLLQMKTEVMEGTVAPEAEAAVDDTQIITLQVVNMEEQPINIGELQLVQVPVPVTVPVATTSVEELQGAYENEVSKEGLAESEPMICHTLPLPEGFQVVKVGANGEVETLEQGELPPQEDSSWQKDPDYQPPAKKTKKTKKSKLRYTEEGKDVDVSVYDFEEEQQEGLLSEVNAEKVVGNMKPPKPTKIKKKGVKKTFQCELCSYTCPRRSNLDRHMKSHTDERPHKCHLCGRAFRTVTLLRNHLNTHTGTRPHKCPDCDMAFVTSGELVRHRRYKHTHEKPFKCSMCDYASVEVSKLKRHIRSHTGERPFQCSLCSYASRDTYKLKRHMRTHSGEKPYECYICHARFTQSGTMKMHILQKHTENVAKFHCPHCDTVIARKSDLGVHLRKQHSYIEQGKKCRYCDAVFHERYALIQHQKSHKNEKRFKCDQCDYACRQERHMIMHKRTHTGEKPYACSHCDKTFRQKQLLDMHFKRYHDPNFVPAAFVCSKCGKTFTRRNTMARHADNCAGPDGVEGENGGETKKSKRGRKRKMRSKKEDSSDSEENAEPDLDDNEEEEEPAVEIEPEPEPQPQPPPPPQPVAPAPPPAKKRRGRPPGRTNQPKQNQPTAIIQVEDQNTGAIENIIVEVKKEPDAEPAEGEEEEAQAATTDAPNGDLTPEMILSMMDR
Test: MST
Details: 50 nM labelled protein, 0.61 nM-20 uM oligo, 140 mM potassium phosphate pH 7.2 (6.7 for i-motif N1-3; CTCF oligo CD at pH 6.7), 10 mM NaCl in oligo …

## TGGGGAGGGTGGGGAGGGTGGGGAAGG [MYC-G4]
  Kd: 140 nM
